One test has as its target mutant G2019S LRRK2 (Homo sapiens (Human), UniProt Q5S007, G2019S). Description: LRRK2 kinase assay (LanthaScreen), G2019S mutant. As to conditions: LRRKtide substrate. It counts as biochemical. As to the method: (§1) LRRK2 kinase activity was measured using Lantha Screen technology from Invitrogen. GST-tagged truncated LRRK2 from Invitrogen (Cat #PV4874) was incubated with a fluorescein-labeled peptide substrate based upon ezrin/radixin/moesin (ERM), also known as LRRKtide (Invitrogen cat #PR8976A), in the presence of a dose response of compound. Upon completion, the assay was stopped and detected with a terbium labeled anti-phospho-ERM antibody (Invitrogen, cat #PR8975A). […] Using Echo acoustic dispensing, 60 nL of compound was transferred to a low volume Corning 384-well assay plate. 3 μL of a working solution of substrate (200 nM LRRKtide, 2 mM ATP) prepared in assay buffer (50 mM HEPES, pH 7.5, 3 mM MgCl2, with 2 mM DTT and 0.01% Brij35 added fresh) was added to the 60 nL compound assay plate. The kinase reaction was started with 3 μL of a working solution of LRRK2 enzyme at a concentration of 4 μg/m L. The final reaction concentrations were 100 nM LRRKtide, 1 mM ATP, 2 μg/mL LRRK2 enzyme and a compound dose response with a top dose of 3 μM. The reaction was allowed to progress at room temperature for 30 minutes and then stopped with the addition of 6 μL of detection buffer (20 mM Tris pH 7.6, 0.01% NP-40, 6 mM EDTA with 2 nM terbium labeled antiphospho-ERM). […] All final concentrations of substrate ATP and enzyme were the same.

Test [1] deals with LRRK2, WT (GST-tagged truncated LRRK2) (Homo sapiens, UniProt Q5S007). Description: LRRK2 kinase assay (LanthaScreen), wild type. In kind it is biochemical. The protocol: as §1
The mark [2] stands for this setting: wild type LRRK2, LanthaScreen, LRRKtide substrate.

From patent publication US11312713B2, “Imidazo[4,5-C]quinoline derivatives as LRRK2 inhibitors” (Pfizer Inc., priority 2017, dated 2022) come the findings set out here.

The structures appear in SMILES notation. Where two headings read alike, the source gives them in different places.

As usually defined, the IC50 is the concentration at which inhibition is half-maximal.

With `CN1CC(n2c(Cn3cncn3)nc3cnc4ccc(Cl)cc4c32)C(F)(F)C1` (stereo not shown) [Example 43, 8-chloro-1-(4,4-difluoro-1-methylpyrrolidin-3-yl)-2-(1H-1,2,4-triazol-1-ylmethyl)-1H-imidazo[4,5-c]quinoline], the IC50 against mutant G2019S LRRK2 stood at 8.53 nM; in test [1] (setting [2]) it was 5.87 nM.

For `Cc1cnc(Cc2nc3cnc4ccc(Cl)cc4c3n2C2CCOCC2(F)F)cn1` (single isomer, unassigned) [Example 8, 8-Chloro-1-(3,3-difluorotetrahydro-2H-pyran-4-yl)-2-[(5-methylpyrazin-2-yl)methyl]-1H-imidazo[4,5-c]quinoline], the IC50 against mutant G2019S LRRK2 was determined as 11.6 nM; in test [1], 11.8 nM.

For `Cc1cnc(Cc2nc3cnc4ccc(F)cc4c3n2C2CN(C)CC2(F)F)cn1` (single isomer, unassigned) [Example 21, 1-(4,4-Difluoro-1-methylpyrrolidin-3-yl)-8-fluoro-2-[(5-methylpyrazin-2-yl)methyl]-1H-imidazo[4,5-c]quinoline], the IC50 in test [1] was determined as 235 nM.

Consider `CN1CC(n2c(Cn3cncn3)nc3cnc4ccc(Cl)cc4c32)C(F)(F)C1` (single isomer, unassigned) [Example 25, 8-Chloro-1-(4,4-difluoro-1-methylpyrrolidin-3-yl)-2-(1H-1,2,4-triazol-1-ylmethyl)-1H-imidazo[4,5-c]quinoline], for which the IC50 in test [1] is 318 nM.

For the compound `Cc1cc(Cc2nc3cnc4ccc(Cl)cc4c3n2[C@H]2CCOCC2(F)F)no1` [Example 5, 8-Chloro-1-[(4S)-3,3-difluorotetrahydro-2H-pyran-4-yl]-2-[(5-methyl-1,2-oxazol-3-yl)methyl]-1H-imidazo[4,5-c]quinoline], the half-maximal inhibitory concentration (IC50) at mutant G2019S LRRK2 stood at 9.41 nM; in test [1] it was 14.6 nM.

As for `Cc1cc(Cc2nc3cnc4ccc(C#N)cc4c3n2[C@@H]2CCN(C)C2)ncn1` [Example 6, 2-[(6-Methylpyrimidin-4-yl)methyl]-1-[(3R)-1-methylpyrrolidin-3-yl]-1H-imidazo[4,5-c] quinoline-8-carbonitrile], the IC50 was 11.3 nM at mutant G2019S LRRK2 and 6.39 nM in test [1].

As for `Cc1cn(Cc2nc3cnc4ccc(F)cc4c3n2C2CN(C)CC2(F)F)nn1` (single isomer, unassigned) [Example 19, 1-(4,4-Difluoro-1-methylpyrrolidin-3-yl)-8-fluoro-2-[(4-methyl-1H-1,2,3-triazol-1-yl)methyl]-1H-imidazo[4,5-c]quinoline], the IC50 amounted to 8.12 nM against mutant G2019S LRRK2 and 5.43 nM in test [1].

For the compound `COCc1cn(Cc2nc3cnc4ccc(Cl)cc4c3n2C2CN(C)CC2(F)F)nn1` (stereo not shown) [Example 44, 8-chloro-1-(4,4-difluoro-1-methylpyrrolidin-3-yl)-2-{[4-(methoxymethyl)-1H-1,2,3-triazol-1-yl]methyl}-1H-imidazo[4,5-c]quinoline], the values for the IC50 (on mutant G2019S LRRK2; in test [1] (setting [2])) were 4.53 nM and 6.02 nM, respectively.

With `COCc1cn(Cc2nc3cnc4ccc(Cl)cc4c3n2C2CN(C)CC2(F)F)nn1` (single isomer, unassigned) [Example 22, 8-Chloro-1-(4,4-difluoro-1-methylpyrrolidin-3-yl)-2-{[4-(methoxymethyl)-1H-1,2,3-triazol-1-yl]methyl}-1H-imidazo[4,5-c]quinoline], half-maximal inhibition in test [1] (IC50) required 138 nM.

Take `Cc1cc(Cc2nc3cnc4ccc(Cl)cc4c3n2C2CCOCC2(F)F)no1` (stereo not shown) [Example 60, 8-chloro-1-(3,3-difluorotetrahydro-2H-pyran-4-yl)-2-[(5-methyl-1,2-oxazol-3-yl)methyl]-1H-imidazo[4,5-c]quinoline]: the IC50 on mutant G2019S LRRK2 is 16.3 nM; in test [1] (setting [2]), 11.4 nM.

As for `COCc1cn(Cc2nc3cnc4ccc(Cl)cc4c3n2C2CN(C)CC2(F)F)nn1` (single isomer, unassigned) [Example 23, 8-Chloro-1-(4,4-difluoro-1-methylpyrrolidin-3-yl)-2-{[4-(methoxymethyl)-1H-1,2,3-triazol-1-yl]methyl}-1H-imidazo[4,5-c]quinoline], the results for the IC50 (at mutant G2019S LRRK2; in test [1]) were 1.35 nM and 2.35 nM, respectively.

For the compound `CN1CC(n2c(Cn3cncn3)nc3cnc4ccc(Cl)cc4c32)C(F)(F)C1` (single isomer, unassigned) [Example 24, 8-Chloro-1-(4,4-difluoro-1-methylpyrrolidin-3-yl)-2-(1H-1,2,4-triazol-1-ylmethyl)-1H-imidazo[4,5-c]quinoline], the IC50 on mutant G2019S LRRK2 stood at 1.19 nM; in test [1], 2.77 nM.

In the case of `Cc1cnc(Cc2nc3cnc4ccc(C(F)F)cc4c3n2[C@@H]2CCO[C@H](C)C2)cn1` [Example 13, 8-(Difluoromethyl)-2-[(5-methylpyrazin-2-yl)methyl]-1-[(2R,4R)-2-methyltetrahydro-2H-pyran-4-yl]-1H-imidazo[4,5-c]quinoline], the 50% inhibitory concentration (IC50) on mutant G2019S LRRK2 was found to be 7.77 nM; in test [1], 9.72 nM.

In the case of `CN1CC(n2c(Cn3cncn3)nc3cnc4ccc(F)cc4c32)C(F)(F)C1` (single isomer, unassigned) [Example 17, 1-(4,4-Difluoro-1-methylpyrrolidin-3-yl)-8-fluoro-2-(1H-1,2,4-triazol-1-ylmethyl)-1H-imidazo[4,5-c]quinoline], the IC50 against mutant G2019S LRRK2 amounted to 7.57 nM; in test [1], 6.49 nM.

As to `COc1cnn(Cc2nc3cnc4ccc(Cl)cc4c3n2C2CCOCC2(F)F)c1` (single isomer, unassigned) [Example 27, 8-Chloro-1-(3,3-difluorotetrahydro-2H-pyran-4-yl)-2-[(4-methoxy-1H-pyrazol-1-yl)methyl]-1H-imidazo[4,5-c]quinoline], the IC50 turned out to be 20.3 nM against mutant G2019S LRRK2 and 29.1 nM in test [1].

Turning to `COc1cnn(Cc2nc3cnc4ccc(C(F)F)cc4c3n2[C@@H]2CCO[C@H](C)C2)c1` [Example 12, 8-(Difluoromethyl)-2-[(4-methoxy-1H-pyrazol-1-yl)methyl]-1-[(2R,4R)-2-methyltetrahydro-2H-pyran-4-yl]-1H-imidazo[4,5-c]quinoline], the IC50 against mutant G2019S LRRK2 is 4.38 nM; in test [1] it was 8.77 nM.

`Cc1cn(Cc2nc3cnc4ccc(F)cc4c3n2C2CN(C)CC2(F)F)nn1` (single isomer, unassigned) [Example 18, 1-(4,4-Difluoro-1-methylpyrrolidin-3-yl)-8-fluoro-2-[(4-methyl-1H-1,2,3-triazol-1-yl)methyl]-1H-imidazo[4,5-c]quinoline] gave an IC50 in test [1] of 263 nM.

For the compound `Cc1cnc(Cc2nc3cnc4ccc(Cl)cc4c3n2C2CCOCC2(F)F)cn1` (single isomer, unassigned) [Example 7, 8-Chloro-1-(3,3-difluorotetrahydro-2H-pyran-4-yl)-2-[(5-methylpyrazin-2-yl)methyl]-1H-imidazo[4,5-c]quinoline], the results for the IC50 (against mutant G2019S LRRK2; in test [1]) were 39.7 nM and 47.9 nM, respectively.

Regarding `Cc1cc(Cc2nc3cnc4ccc(Cl)cc4c3n2C2CCOCC2(F)F)no1` (stereo not drawn) [enantiomer of Example 60, 8-chloro-1-(3,3-difluorotetrahydro-2H-pyran-4-yl)-2-[(5-methyl-1,2-oxazol-3-yl)methyl]-1H-imidazo[4,5-c]quinoline], in test [1] (LanthaScreen, LRRKtide substrate, 1 mM ATP), inhibition was half-maximal at 42.2 nM (IC50).

In turn, `COc1cnn(Cc2nc3cnc4ccc(Cl)cc4c3n2C2CCOCC2(F)F)c1` (single isomer, unassigned) [Example 26, 8-Chloro-1-(3,3-difluorotetrahydro-2H-pyran-4-yl)-2-[(4-methoxy-1H-pyrazol-1-yl)methyl]-1H-imidazo[4,5-c]quinoline] came in with an IC50 in test [1] of 5.9 nM.
